# Measured values reported in PubChem BioAssay AID1224905 (ICCB-Longwood Screening Facility, Harvard Medical School, 2016).
# By UniProt entry, the sequences of proteins in these tests, tags left out.
# UniProt P08753, whole entry, looked up: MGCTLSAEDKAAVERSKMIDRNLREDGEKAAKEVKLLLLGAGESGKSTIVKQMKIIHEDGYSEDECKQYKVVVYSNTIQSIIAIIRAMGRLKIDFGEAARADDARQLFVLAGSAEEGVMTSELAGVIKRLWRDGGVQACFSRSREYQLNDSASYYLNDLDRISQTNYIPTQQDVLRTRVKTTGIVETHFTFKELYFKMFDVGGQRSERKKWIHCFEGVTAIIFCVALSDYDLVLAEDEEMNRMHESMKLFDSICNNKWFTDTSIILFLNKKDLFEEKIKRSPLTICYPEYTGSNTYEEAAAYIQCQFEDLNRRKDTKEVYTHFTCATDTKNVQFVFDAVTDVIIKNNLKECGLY
# About 880 (0.42%) of roughly 210,000 compounds were called active. What follows is part of a selection rich in actives, with near analogues and random picks from the rest. A number with no mark means an inactive call.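 Rule for the calls: active = replicate mean at 85% of control or lower with very high polarization wells dropped (limit read from the data); inactive = the rest.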
# Biological target: Guanine nucleotide-binding protein G(i) subunit alpha-3 (Rattus norvegicus) (UniProt P08753)
# Test: inhibitors of GIV peptide binding to Galpha-i3, primary screen, biochemical, fluorescence polarization, FITC-GIV GBA peptide, rat Galphai3 (AID 1224905);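 note: lower values mean more displacement of the GIV peptide from Galpha-i3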
# Conditions: 90 min, hits give low values, scaled: aluminum fluoride 0%, vehicle 100%
row,Compound,percent of control (FP)
1,CN(C)/C=C/c1nc(C(F)(F)F)c(C#N)s1,20.7% (active)
2,O=C(Nc1ccc(-c2nc3ccccc3o2)cc1)C1COc2ccccc2O1 (centres undefined),140%
3,Cc1nc2ccc(S(=O)(=O)NCC(=O)Nc3nccs3)cc2s1,103%
4,O=C(CSc1ncnc2ccccc12)Nc1nc2ccccc2s1,102%
5,CCS(=O)(=O)N1CCC2(CC1)Nc1ccc(Cl)cc1-n1cccc12,105%
6,CC(C)c1cc(C2CCCN2Cc2ccc(Br)cc2)no1 (centres undefined),102%
7,CC(=O)Oc1cccc2c1C(=O)C=CC2=O,77.8% (active)
8,CC(=O)Oc1ccc(OC(C)=O)c2c1C1C=CC2CC1,101%
9,CC(=O)Oc1ccccc1C(=O)N1CCN(c2ccccc2F)CC1,101%
10,CCc1cc(C2CCCN2C(=O)NCC2CCCO2)on1 (centres undefined),106%
11,O=C(NCc1ccccc1Cl)c1ccc2nc(N3CCOCC3)sc2c1,104%
12,CCOC(=O)C1(C)/C(=N\Nc2ccc(Br)cc2)C(=O)C(=O)N1c1ccccc1 (centres undefined),101%
13,CC(=O)N1CCc2cc(N3CC(C(=O)N4CCC5(CC4)OCCO5)CC3=O)ccc21 (centres undefined),107%
14,CCC(=O)N1CCc2cc(N3CC(C(=O)N4CCN(C(C)C)CC4)CC3=O)ccc21 (centres undefined),72.7% (active)
15,CCC(NC(=O)C1CC(=O)N(c2ccc3c(c2)CCN3C(C)=O)C1)c1cccs1 (centres undefined),102%
16,CCSCCOC(=O)C1=C(C)NC2=C(C(=O)CC(c3ccccc3)C2)C1c1ccc(OC)cc1OC (centres undefined),105%
17,Cc1cc(Nc2cccc(C(F)(F)F)c2)nc2ccc(NC(=O)CSc3ccncc3)cc12,102%
18,COc1ccc(N=C2NC(=O)/C(=C\c3ccc(OCC(C)C)cc3)S2)cc1,107%
19,Cc1cc2c(cc3n2CC(C)(C(=O)NC2CCCCC2)N(Cc2ccc(F)cc2)C3=O)o1 (centres undefined),102%
20,CCn1c(C)nc2c1C(=O)c1ccccc1C2=O,102%
21,Cc1cc2c3c(ccc(N)c3n1)C(=O)c1ccccc1-2,-32.2% (active)
22,Nc1nnc2c(n1)-c1ccccc1C2=O,100%
23,S=C(Cc1ccc(CC(=S)N2CCOCC2)cc1)N1CCOCC1,105%
24,O=C(Nc1ccc(O)c(-c2nc3ccccc3s2)c1)c1cccc(N2C(=O)CCC2=O)c1,104%

row,Compound,percent of control (FP)
1,CC1CCN(C(=O)CSc2nnc3c(n2)[nH]c2ccccc23)C(C)C1 (centres undefined),108%
2,O=C1/C(=C/c2ccc(-c3cc(Cl)ccc3Cl)o2)C=C(c2ccccc2)N1c1ccc(F)cc1,112%
3,CCOc1ccc(NC(=O)c2cn(C)c3c(c(C)nn3-c3ccc(F)cc3)c2=O)cc1,101%
4,O=C(NN=c1c(=O)c2ccccc2c1=O)c1ccncc1,76.9% (active)
5,CC(C)/C=N/NC(=O)c1ccccc1,101%
6,CC(=O)Nn1nc2c(n1)C(=NNC(=O)c1ccccc1)c1nn(NC(C)=O)nc1C2=NNC(=O)c1ccccc1,99.9%
7,O=C(Nc1c(F)cc(F)cc1Br)c1cc(S(=O)(=O)N2CCN(c3ccccc3)CC2)ccc1F,106%
8,Cc1ccc(S(=O)(=O)N2CSC[C@@H]2C(=O)NCc2csc(C)n2)cc1,105%
9,O=C(NCc1ccccn1)c1cc(-c2ccccc2O)no1,97.4%
10,CCn1c(=O)c(=O)n(CC(=O)NCCC2=CCCCC2)c2cccnc21,101%
11,Cn1c(=O)c(C#N)c(O)c2ccccc21,103%
12,N#CC(C#N)=C(C#N)/C=C/n1c2ccccc2c2ccccc21,69.8% (active)
13,COc1ccc(Cl)cc1C(=O)Nc1cccc(-c2nc3cccnc3s2)c1,108%
14,COC(=O)C1C(=O)NC(SCC(=O)Nc2ccccc2C)=C(C#N)C1c1ccc(Cl)cc1Cl (centres undefined),104%
15,COc1cc(/C=C2/N=C(c3ccccc3)N(C)C2=O)cc(OC)c1OC,106%
16,COc1cccc(C2=N/C(=C\c3ccccc3OC)C(=O)N2c2cccc(F)c2)c1,62.3% (active)
17,COc1cccc(C2=N/C(=C\c3ccccc3OC)C(=O)N2c2ccc(C)cc2)c1,94%
18,COc1ccc(NC(=O)C2CCCN(c3nc4ncccc4n4cccc34)C2)cc1 (centres undefined),128%
19,CC1CCN(C(=O)Cn2nc(Cc3ccncc3)c3ccccc3c2=O)CC1,101%
20,Cn1cccc1/C=C1\C(=O)NC(=S)N(c2ccccc2)C1=O,80.1% (active)
21,O=C1NC(=S)N(c2ccc(Br)cc2)C(=O)/C1=C/c1ccsc1,94.1%
22,O=C1NC(=O)N(c2ccccc2)C(=O)C1=Cc1c2ccccc2cc2ccccc12,101%
23,Cc1ccc2c(c1)N(C(=O)CSc1nc3ccccc3o1)C(C)(C)c1ssc(=S)c1-2,101%
24,COc1ccc(CNC(=O)c2cnc(N(C)C)nc2C)cc1,99%

row,Compound,percent of control (FP)
1,CCc1nn(CC(=O)NCc2ccc(OC)c(OC)c2)c(=O)c2cc3occc3n12,103%
2,O=C(NCCCN1CCOCC1)C1CCN(c2cncnc2N2CCCCC2)CC1,113%
3,CC1=C(C(N)=O)C(c2ccc(Br)cc2)n2ncnc2N1 (centres undefined),111%
4,CC1=C(C(=O)Nc2ccccc2Cl)C(c2cccs2)n2ncnc2N1 (centres undefined),98%
5,COc1cccc(C2=CC(c3cccc(OC)c3)n3ncnc3N2)c1 (centres undefined),96%
6,CSc1ccc(C2C=C(c3ccc(Cl)s3)Nc3ncnn32)cc1 (centres undefined),-22.3% (active)
7,CSc1ccc(C2C=C(c3cccs3)Nc3ncnn32)cc1 (centres undefined),-22.3% (active)
8,Cc1ccc(-n2nc3c(c2NC(=O)c2ccc(S(=O)(=O)N4CCCC4)cc2)CSC3)c(C)c1,102%
9,O=C(c1cc2c(s1)-c1ccsc1CC2)N1CCN(c2ccccn2)CC1,109%
10,COc1ccc2oc(-c3noc(-c4ccnn4C)n3)c(C)c2c1,106%
11,Cc1cc(C)n(CC(=O)NC2CCCC2)c(=O)c1S(=O)(=O)c1ccc(Cl)cc1,104%
12,CCN1CCN(C(=O)c2sc3nc(C)nc(N4CCN(c5ccccn5)CC4)c3c2C)CC1,104%
13,COCCNC(=O)c1ccc(Cn2c(SCC(=O)NCc3ccccc3)nc3ccc(Br)cc3c2=O)cc1,97.2%
14,N#C/C(=C\c1ccc(-c2ccccc2)o1)C(=O)Nc1ccccc1,36.5% (active)
15,CCOC(=O)c1ccc(-c2ccc(/C=C(\C#N)C(=O)Nc3ccc(C)cc3)o2)cc1,99.2%
16,CCOC(=O)c1ccc(-c2ccc(/C=C(\C#N)C(=O)Nc3ccc(OCC)cc3)o2)cc1,102%
17,CCNC(=O)N1CCCC(c2nc(C(C)C)cs2)C1 (centres undefined),105%
18,O=C(CN1CCN(C(=O)c2cccc(Cl)c2)CC1)Nc1nnc(-c2ccccc2)s1,98.2%
19,CCOc1ccc(NC(=O)Cn2c(SCC)nc3ccccc32)cc1,98.2%
20,Cc1cc2nc3[nH]c4ccccc4c3nc2cc1C,109%
21,O=c1[nH]c2c(c(=O)n1Cc1ccccc1)CCC2,110%
22,Cc1cc2nc3c(=O)n(Cc4ccccc4)c(=O)[nH]c3nc2cc1N,72.2% (active)
23,Cc1sc(NC(=O)c2ccccc2)c(C(Nc2ccccn2)c2cccnc2)c1C (centres undefined),102%
24,Fc1ccccc1CSc1nccn2nc(-c3ccc(Br)cc3)cc12,111%

row,Compound,percent of control (FP)
1,Cc1ccc(C2(c3ccc(C)cc3)CC2C(=O)Nc2cccc(C(F)(F)F)c2)cc1 (centres undefined),104%
2,Cc1ccc(OCCn2cc(/C=C3/C(=O)Nc4cc(Cl)ccc43)c3ccccc32)cc1C,35.2% (active)
3,Cc1ccc(OCCn2cc(C(=O)c3ccccc3)c3ccccc32)cc1,99.6%
4,COc1ccccc1OCCCn1cc(/C=C2/C(=N)N3C=CSC3=NC2=O)c2ccccc21,103%
5,CCc1cc2c(NC3CCCCC3)ncnc2s1,117%
6,O=c1sc2ccccc2c2nc[nH]c12,99.7%
7,O=C(Cn1c2c(c(-c3ccccc3Cl)cc1=O)CCC2)NC1CCCCC1,108%
8,CNC(=O)CSc1nnc2[nH]c(=O)cc(C)n12,108%
9,Cc1c(Cc2ccccc2)c(N2CCCCC2)n2c(nc3ccccc32)c1C#N,146%
10,Cc1cc(N2CCN(c3ccccc3)CC2)n2c(nc3ccccc32)c1C#N,99.6%
11,N#Cc1c(N2CCCCCC2)ncc2cc3ccccc3nc12,-18.1% (active)
12,Cc1cc(C(=O)NCCN2CCOCC2)c2c(=O)n(C)c(=O)n(C)c2n1,105%
13,CC(=O)N[C@H]1[C@H](Oc2ccc(C)cc2)O[C@H](COC(C)=O)[C@@H](OC(C)=O)[C@@H]1OC(C)=O,131%
14,CCOC(=O)CSc1ncn[nH]1,102%
15,CCn1nc(C)cc1-c1nnc(SCC(=O)c2ccc(C)cc2)o1,108%
16,CCN(CC)c1ccc2oc(=O)c(C)nc2c1,-40.7% (active)
17,CCN(CC)c1ccc2cc(-c3csc(-c4nc(-c5cc6ccc(N(CC)CC)cc6oc5=O)cs4)n3)c(=O)oc2c1,109%
18,CCN(CC)c1ccc2cc(C(=O)O)c(=O)oc2c1,115%
19,Cc1c(C(=O)NCC(c2ccccc2)c2c[nH]c3ccccc23)oc2ccc(Cl)cc12 (centres undefined),105%
20,O=C1NC(=O)/C(=C/c2ccc(-c3ccc([N+](=O)[O-])cc3Br)o2)S1,62.8% (active)
21,N=C1S/C(=C\c2ccc(-c3ccccc3[N+](=O)[O-])o2)C(=O)N1c1ccc2c(c1)OCO2,114%
22,O=C1N/C(=C/c2ccc(-c3ccc([N+](=O)[O-])cc3Br)o2)C(=O)N1Cc1ccc(Cl)cc1,146%
